Values of other authors in patent US20020165141A1, “Methods for promoting dendritic cell proliferation or differentiation” (priority 2000, published 2002).

Molecular target: T1, AT2 receptor (Homo sapiens, UniProt P50052)
T1 sequence (P50052 1-363): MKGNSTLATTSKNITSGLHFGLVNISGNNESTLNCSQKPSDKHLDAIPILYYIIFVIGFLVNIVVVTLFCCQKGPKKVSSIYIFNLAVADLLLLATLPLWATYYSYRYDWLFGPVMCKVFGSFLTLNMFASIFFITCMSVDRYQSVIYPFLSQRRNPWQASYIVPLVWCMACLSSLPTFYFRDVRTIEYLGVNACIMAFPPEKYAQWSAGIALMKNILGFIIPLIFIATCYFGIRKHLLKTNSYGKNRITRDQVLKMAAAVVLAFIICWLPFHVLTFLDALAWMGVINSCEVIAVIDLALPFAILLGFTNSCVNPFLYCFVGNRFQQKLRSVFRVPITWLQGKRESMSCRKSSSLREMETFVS
Conditions: experimental models of the literature; cited from earlier work

For “Asp-Arg-Val-Tyr-Ile-Xaa-Pro-Phe [p-aminophenylalanine6-AII]”, the binding characteristics is given as “comparable to AT2 antagonists”.
